Measured values as given in EP4786461A1, “PYRAZOLE CARBOXYLIC ACID DERIVATIVE AND USE THEREOF IN MEDICINE” (Haisco Pharmaceutical Group Co., Ltd., priority 2023, dated 2025).

Protein sequences, listed by entry. Tags and fused reporters are not part of them.
UniProt Q02108, whole entry: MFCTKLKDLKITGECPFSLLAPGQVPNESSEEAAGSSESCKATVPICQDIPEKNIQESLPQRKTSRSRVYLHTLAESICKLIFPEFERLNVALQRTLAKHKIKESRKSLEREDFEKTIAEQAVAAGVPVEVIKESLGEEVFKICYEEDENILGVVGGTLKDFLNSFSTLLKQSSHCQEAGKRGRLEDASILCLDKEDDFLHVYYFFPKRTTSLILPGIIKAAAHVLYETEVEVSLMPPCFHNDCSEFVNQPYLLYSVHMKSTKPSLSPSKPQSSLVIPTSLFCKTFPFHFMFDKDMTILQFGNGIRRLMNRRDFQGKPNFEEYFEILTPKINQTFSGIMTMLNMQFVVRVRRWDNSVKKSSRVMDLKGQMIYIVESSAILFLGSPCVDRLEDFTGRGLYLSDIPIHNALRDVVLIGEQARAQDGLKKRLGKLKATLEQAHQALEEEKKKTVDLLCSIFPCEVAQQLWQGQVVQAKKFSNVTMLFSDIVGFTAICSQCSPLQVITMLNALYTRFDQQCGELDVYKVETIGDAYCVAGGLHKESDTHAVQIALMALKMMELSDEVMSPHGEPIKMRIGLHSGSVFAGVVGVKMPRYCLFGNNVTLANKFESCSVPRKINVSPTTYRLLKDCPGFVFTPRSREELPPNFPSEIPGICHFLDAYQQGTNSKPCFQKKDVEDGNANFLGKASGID
UniProt Q02153, whole entry: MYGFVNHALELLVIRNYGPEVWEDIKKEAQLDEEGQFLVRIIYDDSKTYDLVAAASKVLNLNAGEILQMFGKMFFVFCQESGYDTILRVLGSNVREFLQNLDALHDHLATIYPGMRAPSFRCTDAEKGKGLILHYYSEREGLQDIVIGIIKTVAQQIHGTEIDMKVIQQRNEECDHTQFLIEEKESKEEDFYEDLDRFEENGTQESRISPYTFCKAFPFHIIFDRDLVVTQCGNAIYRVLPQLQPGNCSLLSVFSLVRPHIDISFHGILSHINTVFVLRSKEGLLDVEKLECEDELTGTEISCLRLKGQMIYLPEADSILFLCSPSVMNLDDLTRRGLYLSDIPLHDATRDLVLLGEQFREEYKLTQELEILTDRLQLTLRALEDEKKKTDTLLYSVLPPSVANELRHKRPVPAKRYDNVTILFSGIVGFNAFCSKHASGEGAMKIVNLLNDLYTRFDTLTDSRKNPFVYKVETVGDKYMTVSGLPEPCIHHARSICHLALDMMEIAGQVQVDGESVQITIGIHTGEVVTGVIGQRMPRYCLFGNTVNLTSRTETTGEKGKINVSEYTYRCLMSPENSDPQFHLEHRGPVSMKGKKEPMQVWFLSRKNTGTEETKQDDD

Biological target: soluble guanylate cyclase (sGC) (Homo sapiens, UniProt Q02108+Q02153)
Experiment: In vitro detection experiment for soluble guanylate cyclase (sGC) activity (TR-FRET cGMP)
Details: enzymatic agonism and/or activation of sGC; 1.5 nM sGC, 5 µM GTP, 100 µM DETA NONOate; tested form: free form

CC(C)CN1C2CCC1CN(c1ccc(-c3ccc(Cl)cc3N3CCCC(n4ncc(C(=O)O)c4C(F)F)C3)cc1)C2 (single isomer, unassigned)
EC50: < 20 nM
